Experimental data reported in PubChem BioAssay AID1259422 (The Scripps Research Institute Molecular Screening Center, 2018).
Only a part is listed here, and it is no random draw. The source made the active and inactive calls. No stated cut-off is given here; in the data, active means inhibition above about 32%; inactive means the rest.

Test: TEAD-YAP interaction inhibition, primary screen, TEAD-YAP interaction inhibitor project, luminescence, HEK-TIYL cells (AID 1259422);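 further: 0% = median of test compound wells and 100% = reference inhibitor wells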
Conditions: TEAD-Gal4/YAP UAS-luciferase luminescence, at 9.12 µM, stronger effect = higher value

Row | Structure (SMILES) | inhibition
1 | O=C(Cc1ccc(F)cc1)N(Cc1cccnc1)C1CCN(CCc2ccccn2)CC1 | inactive: 2.79%
2 | Cc1cc(NP(=O)(Oc2ccccc2)Oc2ccccc2)no1 | inactive: 0.25%
3 | CCN(CC)C(=O)NP(=O)(Oc1ccccc1)Oc1ccccc1 | inactive: 9.19%
4 | COc1ccc(NC(=O)c2cc([N+](=O)[O-])cc([N+](=O)[O-])c2)c([N+](=O)[O-])c1 | inactive: -3.15%
5 | O=C(Nc1ccncc1[N+](=O)[O-])c1ccc([N+](=O)[O-])cc1[N+](=O)[O-] | inactive: 10.9%
6 | O=C(COC(=O)c1ccc([N+](=O)[O-])cc1[N+](=O)[O-])c1ccc([N+](=O)[O-])cc1 | inactive: 21%
7 | COc1cc(NC(=O)COC(=O)C(O)(c2ccccc2)c2ccccc2)cc(OC)c1 | inactive: -3.85%
8 | Cc1cc(NP(=O)(/C=C(\Cl)c2ccccc2)/C=C(\Cl)c2ccccc2)n[nH]1 | inactive: 9.29%
9 | COc1ccc(CCN2CCC(N(Cc3cccnc3)C(=O)NC(C)C)CC2)cc1 | inactive: -2.94%
10 | O=[N+]([O-])c1ccc(N/N=C/c2cc3c(cc2[N+](=O)[O-])OCO3)c([N+](=O)[O-])c1 | inactive: -4.61%
11 | OP1(c2ccccc2)=NC(c2ccccc2)=NC(C(Cl)(Cl)Cl)=N1 (configuration not stated) | inactive: -1.56%
12 | O=C(Oc1ccc([N+](=O)[O-])cc1[N+](=O)[O-])c1ccc(Cl)cc1[N+](=O)[O-] | inactive: 7.02%
13 | O=C(c1cccnc1)N(Cc1ccco1)C1CCN(CCc2cccs2)CC1 | inactive: -1.24%
14 | CCOP(=O)(OCC)SCC(=O)NCC(=O)O | inactive: 7.11%
15 | CCOP(=S)(OCC)C1(C#N)CCCC1 | inactive: 6.38%
16 | CCCOP(=O)(OCCC)O/C(C)=C/SC#N | inactive: 10.7%
17 | ICC1CN=C(Nc2ncccn2)S1 (configuration not stated) | inactive: 2.32%
18 | CC(=O)N(Cc1cccnc1)C1CCN(CCc2ccccn2)CC1 | inactive: 1.11%
19 | O=[N+]([O-])c1ccc(C(O)C(CO)Nc2ccc([N+](=O)[O-])cc2[N+](=O)[O-])cc1 (configuration not stated) | inactive: -1.06%
20 | O=C(COC(=O)C(O)(c1ccccc1)c1ccccc1)NCC(F)(F)F | inactive: -12.6%
21 | BrCC1CN=C(Nc2ccccc2Br)S1 (configuration not stated) | inactive: 4.24%
22 | CC(C)OP(=O)(OC(C)C)C(=O)c1ccccc1 | inactive: -0.75%
23 | c1ccc2nc(-c3nc4ccccc4[nH]3)ccc2c1 | active: 68.7%

Row | Structure (SMILES) | inhibition
24 | CC(C)COP(=O)(Nc1cccc(F)c1)OCC(C)C | inactive: 4.93%
25 | CC1CN(c2ccc([N+](=O)[O-])cc2[N+](=O)[O-])CCN1c1ccc([N+](=O)[O-])cc1[N+](=O)[O-] (configuration not stated) | inactive: -4.99%
26 | O=C(Nc1nnc(-c2cccc([N+](=O)[O-])c2)s1)c1ccc([N+](=O)[O-])cc1[N+](=O)[O-] | inactive: -3.43%
27 | Cc1cc(=O)[nH]c(N[N+](=O)[O-])n1 | inactive: -1.35%
28 | COc1ccc(C)cc1NC(=O)N(Cc1ccco1)C1CCN(CCc2ccccn2)CC1 | inactive: 8.48%
29 | CCOP(=S)(OCC)SCC(=O)NC(C)C(=O)NC (configuration not stated) | inactive: 0.88%
30 | COc1ccc(CCN2CCC(N(Cc3cccnc3)C(C)=O)CC2)cc1 | inactive: 2.94%
31 | CN(C)P1(=O)Nc2ccccc2S1 (configuration not stated) | inactive: 5.56%
32 | Cc1cccc(NP(=O)(c2ccccc2)c2ccccc2)n1 | inactive: -1.01%
33 | COP(=O)(OC)C(NC(=O)c1ccc(C)cc1)=C(Cl)Cl | inactive: 7.91%
34 | COC(=O)N(c1ccc(OC)cc1)P1(=S)OCC(C)O1 (configuration not stated) | inactive: -13.2%
35 | CN(C)CCCN(C)Cc1cc2ccccc2o1 | inactive: 6.41%
36 | CC(C)NC(=O)NP(=O)(Oc1ccccc1)Oc1ccccc1 | inactive: -0.7%
37 | CCN(CCCl)c1ccc(C=C(C#N)C#N)c(C)c1 | inactive: 0.77%
38 | COP1(=S)N=C2c3ccccc3CN2c2cc(N(C)C)ccc21 (configuration not stated) | inactive: 11.5%
39 | Nc1nonc1OCCOc1nonc1N | inactive: 3.53%
40 | CCOP(=S)(OCC)SCC(=O)NC(C)C(=O)O (configuration not stated) | inactive: 10%
41 | CCCOc1ccc(S(=O)(=O)N(CCCl)CCCl)cc1 | inactive: 3.06%
42 | O=[N+]([O-])c1ccc2no[n+]([O-])c2c1 | inactive: -9.26%
43 | O=[N+]([O-])c1cc([N+](=O)[O-])c(Nc2ccccc2)c([N+](=O)[O-])n1 | inactive: 16.6%
44 | O=C(NNC(=O)c1ccncc1)NP1Oc2ccccc2O1 | inactive: 5.18%
45 | O=C(c1cccnc1)N(Cc1ccco1)C1CCN(CCc2ccc(Cl)cc2)CC1 | inactive: -4.75%
46 | O=P1(Nc2nc(-c3ccccc3)cs2)C=C(c2ccccc2)OC(c2ccccc2)=C1 | inactive: -0.97%

Row | Structure (SMILES) | inhibition
47 | O=[N+]([O-])c1ccc(/C=C/C=N/Nc2ccc([N+](=O)[O-])cc2[N+](=O)[O-])cc1 | inactive: 4.92%
48 | CC(C)OP(=O)(NC(C)(C)C)C(Cl)Cl (configuration not stated) | inactive: -4.42%
49 | CCOP(=O)(OCC)C(=O)c1ccc(OC)cc1 | inactive: -1.26%
50 | CC(C)OP(=O)(OC(C)C)C(=O)c1ccc(F)cc1 | inactive: 0.63%
51 | O=[N+]([O-])c1cc([N+](=O)[O-])c2[nH]ncc2c1 | inactive: 3.95%
52 | O=C(Cn1cnc([N+](=O)[O-])n1)NCCO[N+](=O)[O-] | inactive: -0.1%
53 | CCOP(=O)(OCC)C(=O)c1ccccc1Cl | inactive: -0.11%
54 | O=C(Nc1ccccc1[N+](=O)[O-])c1ccc([N+](=O)[O-])cc1[N+](=O)[O-] | inactive: 7.09%
55 | COc1ccc(NC2=NCC(CBr)S2)cc1 (configuration not stated) | inactive: -7.72%
56 | O=[N+]([O-])c1cc([N+](=O)[O-])c(CCN2CCOCC2)c([N+](=O)[O-])c1 | inactive: -10.2%
57 | CN(C(=O)COC(=O)C(O)(c1ccccc1)c1ccccc1)c1ccccc1 | inactive: 14.8%
58 | O=[N+]([O-])c1ccc(Oc2ccccc2[N+](=O)[O-])c([N+](=O)[O-])c1 | inactive: -4.68%
59 | CCOP(=Nc1nc2ccccc2n2nnnc12)(OCC)OCC | inactive: -2.26%
60 | O=[N+]([O-])c1cc([N+](=O)[O-])c(OCC(O)C[n+]2ccccc2)c([N+](=O)[O-])c1 (configuration not stated) | inactive: 0.15%
61 | Nc1c([N+](=O)[O-])cc([N+](=O)[O-])c(Nc2cccc(C(=O)O)c2)c1[N+](=O)[O-] | inactive: 5.72%
62 | N=C1N=C(c2ccc([N+](=O)[O-])cc2)CC(C(Cl)(Cl)Cl)S1 (configuration not stated) | inactive: -0.02%
63 | Cc1cc(SC(NC(=O)CC(C)C)C(Cl)(Cl)Cl)ncn1 (configuration not stated) | inactive: -1.07%
64 | CC(=O)OC=C1c2cc([N+](=O)[O-])cc([N+](=O)[O-])c2-c2c1cc([N+](=O)[O-])cc2[N+](=O)[O-] | inactive: -6.03%
65 | Nc1cc(N)c2nonc2c1[N+](=O)[O-] | inactive: 1.27%
66 | O=C(Nc1ccc([N+](=O)[O-])cc1Cl)c1ccc([N+](=O)[O-])cc1[N+](=O)[O-] | inactive: 29.8%
67 | Oc1ccccc1CNc1ccccn1 | inactive: -30.8%
68 | COc1ccc2c(c1)nc(NCCCl)n2C | inactive: 13.6%
69 | CCN(CC)C1=NP(=O)(c2ccccc2)NC(c2ccccc2)=C1C#N (configuration not stated) | inactive: -3.62%

Row | Structure (SMILES) | inhibition
70 | COc1ccc(CCN2CCC(N(Cc3ccco3)C(=O)NC(C)C)CC2)cc1 | inactive: -3.7%
71 | Cc1cc(C)nc(SC(NC(=O)C(C)C)C(Cl)(Cl)Cl)n1 (configuration not stated) | inactive: 8.45%
72 | CCOC(=O)N1C2CCC1CC(OC(=O)C(O)(c1ccccc1)c1ccccc1)C2 (configuration not stated) | inactive: -14.2%
73 | CCOc1ccc(/C=C2/C(=O)NC(=O)N(Cc3ccco3)C2=O)cc1 | inactive: -5.75%
74 | CCCCOP(=O)(OCCCC)SC | inactive: -6.54%
75 | CCOP(=O)(OCC)SCC(=O)NCCC(=O)O | inactive: 12.7%
76 | COC(=O)c1ccc(OP2(=S)OCC(C)(C)CO2)cc1 | inactive: -23.7%
77 | O=C(Nc1ccc(C(F)(F)F)cc1[N+](=O)[O-])c1cc([N+](=O)[O-])cc([N+](=O)[O-])c1 | inactive: 12.3%
78 | NC(=O)c1cc([N+](=O)[O-])cc([N+](=O)[O-])c1N | inactive: -3.81%
79 | Cc1ccc(N/C(=N/P(=O)(N2CCOCC2)N2CCOCC2)N2CCOCC2)cc1 | inactive: -8.97%
80 | Cc1cc(C)nc(NNc2c([N+](=O)[O-])cc([N+](=O)[O-])c(C)c2[N+](=O)[O-])n1 | inactive: -3.85%
81 | Cc1ccc(S(=O)(=O)N2C(=O)CSC2C(Cl)(Cl)Cl)cc1 (configuration not stated) | inactive: 24.3%
82 | CCOP(=O)(Nc1cccc(C(F)(F)F)c1)OCC | inactive: 4.74%
83 | CCCCOP1(=S)N=C2c3ccccc3CN2c2cc(N(C)C)ccc21 (configuration not stated) | inactive: 2.34%
84 | O=P(Nc1ccccn1)(OCC(F)(F)F)Oc1ccccc1 (configuration not stated) | inactive: 8.22%
85 | O=C(OC1CN2CCC1CC2)C1COc2ccccc2O1 (configuration not stated) | inactive: 12%
86 | COP(=O)(NS(=O)(=O)c1ccc(Cl)cc1)OC | inactive: -6.79%
87 | O=C(CCNCCCl)c1ccccc1 | inactive: -9.33%
88 | O=C(N/N=C/c1ccc([N+](=O)[O-])cc1)c1cc([N+](=O)[O-])cc([N+](=O)[O-])c1 | inactive: -1.63%
89 | Cc1nc(Nc2cccc([N+](=O)[O-])c2)nc(Nc2cccc([N+](=O)[O-])c2)c1[N+](=O)[O-] | inactive: -5.02%
90 | Cc1cc(NP2(=O)C=C(c3ccccc3)SC(c3ccccc3)=C2)n[nH]1 | inactive: -7.71%
91 | Cc1cccc(NC2=NCC(CBr)S2)c1 (configuration not stated) | inactive: -14.9%
92 | Cc1c([N+](=O)[O-])cc(C(=O)Nc2ccc([N+](=O)[O-])cc2)cc1[N+](=O)[O-] | inactive: 2.14%
